Results: patent publication US20030229002A1, “Use of agents that modulate PDE11A activity” (Pfizer Inc., priority 2002, published 2003)

Amino acid sequences for entries named in this document (tags omitted). A change or cut given only in a name is not applied to a line headed by its entry. Residues count along the entry.
UniProt Q9HCR9, 445-933: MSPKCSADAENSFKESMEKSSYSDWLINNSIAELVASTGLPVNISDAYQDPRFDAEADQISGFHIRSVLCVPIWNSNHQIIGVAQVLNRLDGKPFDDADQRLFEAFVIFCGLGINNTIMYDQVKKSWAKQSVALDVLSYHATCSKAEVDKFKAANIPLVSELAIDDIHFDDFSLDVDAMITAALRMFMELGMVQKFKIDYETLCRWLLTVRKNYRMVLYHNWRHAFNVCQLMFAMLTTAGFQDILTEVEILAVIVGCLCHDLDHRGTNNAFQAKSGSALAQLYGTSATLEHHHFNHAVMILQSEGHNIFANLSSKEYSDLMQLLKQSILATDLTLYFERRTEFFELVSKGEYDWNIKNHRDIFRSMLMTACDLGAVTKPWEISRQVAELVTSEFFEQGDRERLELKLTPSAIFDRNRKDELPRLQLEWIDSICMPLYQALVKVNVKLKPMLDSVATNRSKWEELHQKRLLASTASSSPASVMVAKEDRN
UniProt O76083: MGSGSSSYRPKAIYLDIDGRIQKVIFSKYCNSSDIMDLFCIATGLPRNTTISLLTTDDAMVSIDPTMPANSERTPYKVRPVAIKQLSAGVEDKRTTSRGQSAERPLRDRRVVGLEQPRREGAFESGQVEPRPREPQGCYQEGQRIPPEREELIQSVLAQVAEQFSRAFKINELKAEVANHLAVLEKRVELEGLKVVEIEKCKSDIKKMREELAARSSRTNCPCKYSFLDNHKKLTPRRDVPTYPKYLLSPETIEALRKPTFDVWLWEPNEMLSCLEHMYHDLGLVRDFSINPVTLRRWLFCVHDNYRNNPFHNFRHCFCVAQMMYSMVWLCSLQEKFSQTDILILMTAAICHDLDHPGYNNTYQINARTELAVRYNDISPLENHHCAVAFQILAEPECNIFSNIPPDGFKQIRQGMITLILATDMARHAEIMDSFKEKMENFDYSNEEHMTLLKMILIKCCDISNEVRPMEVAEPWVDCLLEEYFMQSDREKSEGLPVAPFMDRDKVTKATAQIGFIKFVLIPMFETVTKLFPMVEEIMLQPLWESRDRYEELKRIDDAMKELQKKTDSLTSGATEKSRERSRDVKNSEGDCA

What was measured:
Assay type in all cases: biochemical
recombinant human PDE11A = target: T1, recombinant human PDE11A (Homo sapiens, UniProt Q9HCR9); assay: PDE11A inhibition, SPA-based cGMP hydrolysis assay
T1 construct: made in house; host or cells: Sf9 insect cells (baculovirus)

PDE5 = PDE5 (Homo sapiens, UniProt O76074); assay: PDE5 inhibition, SPA-based cGMP hydrolysis assay; details: PDE5 isolated from human corpus cavernosum; geometric mean of at least 3 determinations
recombinant human PDE9 = target: T2, recombinant human PDE9 (Homo sapiens, UniProt O76083); assay: PDE9 inhibition, SPA-based assay; details: Sf9 cells, geometric mean of at least 3 determinations
T2 construct: made in house; host or cells: Sf9 insect cells (baculovirus)

SMILES: O=C(O)C1CCN(c2nc(NCc3ccc4c(c3)OCO4)c3cc(Cl)ccc3n2)CC1 [Compound E4021, 1-[4-[(1,3-benzodioxol-5-ylmethyl)amino]-6-chloro-2-quinazolinyl]-4-piperidinecarboxylic acid, monohydrochloride]
- selectivity for inhibiting PDE11A when compared to PDEs 7-10 (recombinant human PDE11A): demonstrated selectivity
- pIC50 (PDE5): 7.48

SMILES: CCCc1nn(C)c2c(=O)[nH]c(-c3cc(S(=O)(=O)N4CCN(C)CC4)ccc3OCC)nc12 [Sildenafil, 5-[2-ethoxy-5-(4-methyl-1-piperazinylsulphonyl)phenyl]-1-methyl-3-n-propyl-1,6-dihydro-7H-pyrazolo[4,3-d]pyrimidin-7-one]
- pIC50 (recombinant human PDE9): 5.61

SMILES: Clc1ccc2nc(-n3ccnc3)nc(NCc3ccccc3)c2c1 [UK-235,187, 6-Chloro-2-(1H-imidazol-1-yl)-N-(phenylmethyl)-,4-quinazolinamine, dihydrochloride]
- pIC50 (PDE5): 8.33

pIC50: −log10 of the molar value. Counter-ions that a name gives are not always drawn.
